# Apparent affinities of Ab-14 variants for a coronavirus HR2 peptide

The target is the same throughout: PDVDLGDISGINAS, from the HR2 region of SARS-CoV-2 spike.

Ab-14 is the parent antibody, in scFv form: VH, then a (GGGGS)3 linker, then VL. The light chain is unchanged in all variants.
VH: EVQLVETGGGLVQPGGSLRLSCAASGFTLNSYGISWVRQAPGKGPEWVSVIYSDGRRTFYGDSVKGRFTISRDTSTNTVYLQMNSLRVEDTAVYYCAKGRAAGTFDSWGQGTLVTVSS
VL: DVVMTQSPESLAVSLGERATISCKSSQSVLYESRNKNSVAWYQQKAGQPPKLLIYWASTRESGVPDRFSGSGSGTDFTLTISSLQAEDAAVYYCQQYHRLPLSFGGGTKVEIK

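The variants were designed computationally from a first round of random CDR variants and then made and measured. Several design methods are mixed in this list. The scFvs were displayed on barcoded MATa yeast, the peptide on MATalpha yeast. Binding brings cells together so that they mate, and sequencing counts the barcode pairs among the diploids. Each replicate has its own calibration line, from reference interactions of the BCL2 family. Each pool was mated in six replicate cultures.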

Variants are written as CDR1, CDR2 and CDR3 of the heavy chain (limits as in the source). Parent: GFTLNSYGIS, VIYSDGRRTFYGDSVK, GRAAGTFDS. Kd is apparent (estimated from mating counts) and averaged on the log scale over replicates with a signal. Smaller is tighter. An entry "nd" has no value in the source: the pair was not observed among the diploids in any replicate. This suggests poor binding but is not conclusive. Order: sorted from the lowest average up, undetected variants last. In the paper, a design with two or fewer of six values counts as a poor binder. Of ten entries with the parent sequence, four were seen in most replicates (averages 2.2 nM to 240 nM), three in one and three in none, so single entries are noisy. Values of this round are not directly comparable with the first-round values of the same sequences. Some sequences occur more than once in the pool; their replicates are pooled. As a blank, each scFv also met three strains without target: over all heavy chain designs, 1% of these pairings were detected, typically at 120 nM and seldom below 7.0 nM.

CDR-H1 | CDR-H2 | CDR-H3 | Kd | seen in
GFDLEDYGIS | VIYADGSRTAYADSVK | GNVAGTFDV | 97 pM | 4 of 6
GFDLNEYGIS | VIYADGVRTAYADSVK | GNQAGTFDQ | 110 pM | 6 of 6
GFDLNEYGIS | VIYADGMRTVYADSVK | GENAGTFDV | 130 pM | 6 of 6
GFDLNEYGIS | VIYADGVRTFYVDSVK | GVNAGTFDV | 200 pM | 6 of 6
GFDLNEYGIS | VIYADGMRTFYSDSVK | GAVAGTFDK | 220 pM | 6 of 6
GFDLNEYGIS | VIYADGRRTFYQDSVK | GQLAGTFDL | 250 pM | 6 of 6
GFDLNDYGIS | VIYADGRRTAYIDSVK | GEVAGTFDK | 280 pM | 6 of 6
GFDLNEYGIS | VIYADGRRTAYDDSVK | GEVAGTFDS | 290 pM | 6 of 6
GFDLNEYGIS | VIYADGMRTFYADSVK | GQNAGTFDM | 360 pM | 6 of 6
GFDLNEYGIS | VIYADGRRTFYTDNVK | GQNAGTFDI | 360 pM | 6 of 6
GFDLNEYGIS | VIYADGMRTFYSDSVK | GEVAGTFDL | 410 pM | 6 of 6
GFDLNEYGIS | VIYADGQRTFYTDSVK | GEVAGTFDS | 490 pM | 6 of 6
GFDLNEYGIS | VIYADGRRTAYADSVK | GNQAGTFDI | 570 pM | 6 of 6
GFDLDEYGIS | VIYADGKRTAYADSVK | GNEAGTFDL | 630 pM | 6 of 6
GFDLNEYGIS | VIYADGRRTAYADSVK | GEVAGTFNV | 840 pM | 6 of 6
GFDLDEYGIS | VIYADGMRTAYTDSVK | GEVAGTFDV | 1.3 nM | 6 of 6
GFVLNSYGIS | VIYSDGRRTFYADSVK | GQEAGTFDS | 1.5 nM | 6 of 6
GFHLNSYGIS | VIYSDGMRTFYADSVK | GRTAGTFDS | 2.0 nM | 6 of 6
GFELNSYGIS | VIYADGRRTFYGDSVK | GEAAGTFDV | 2.7 nM | 6 of 6
GFTLNSYGIS | VIYSDGQRTFYADSVK | GRAAGTFDS | 3.6 nM | 6 of 6
GFVLNSYGIS | VIYADGRRTFYGDQVK | GRTAGTFDS | 5.2 nM | 3 of 6
GFNLNEYGIS | VIYSDGRRTFYGDSVK | GRHAGTFDS | 5.8 nM | 6 of 6
GFELNSYGIS | VIYSDGRRTFYGDSVK | GHAAGTFDK | 8.5 nM | 3 of 6
GFELNEYGIS | VIYSDGRRTFYGDSVK | GQAAGTFDE | 11 nM | 6 of 6
GFQLNSYGIS | VIYSDGRRTFYIDSVK | GKAAGTFDS | 14 nM | 1 of 6
GFTLNSYGIS | VIYSDGRRTFYSDSVK | GQDAGTFDT | 14 nM | 6 of 6

Continued, with the values leading:

Kd | seen in | CDR-H1 | CDR-H2 | CDR-H3
30 nM | 4 of 6 | GFTLNSYGNS | VIYSDGRRTFYGDSVR | GRAAGTFDS
32 nM | 6 of 6 | GFSLNSYGIS | VIYSDGRRTFYADRVK | GNAAGTFDS
61 nM | 3 of 6 | GFHLNSYGIS | VIYSDGRRTFYGDQVK | GRTAGTFDS
66 nM | 1 of 6 | MFDLNSYGIS | VIYSDGRRTFYKDSVK | GRTAGTFDS
67 nM | 6 of 6 | GFELNSYGIS | VIYSDGRRTFYSDSVK | GNAAGTFDS
88 nM | 1 of 6 | GFTLNQYGIS | VIYSDGRRTFYSDSVK | GRAATFFDS
120 nM | 1 of 6 | GFTMNSYGIS | VIYSDGRRTFYGDSVK | GRAKGTYDS
140 nM | 6 of 6 | GFDLNSYGIS | VIYSDGRRTFYGDSVK | GEAAGTFDC
240 nM | 3 of 6 | PFDLNSYGIS | VIYSDGRRTFYQDSVK | GEAAGTFDS
270 nM | 5 of 6 | GFSLNSYGIS | VIYSDGRRTFYGDSVK | GEAAGTFDW
530 nM | 1 of 6 | DFTLNSYGIS | VIYSDGRRTYYADSVK | GRVAGTFKS
2.7 µM | 1 of 6 | GFTLNSYGIS | VIYSDGRRTFYGDSVK | HDAAGTPDS
nd | 0 of 6 | GFDLGEYGVS | VIYADGKRTHYADHVK | GVNLGFFDT
nd | 0 of 6 | GFTLNSFGIS | VIYSDGRRTFYDDSQK | HQLDGTFDS
nd | 0 of 6 | GFGIGEYGIS | VIYADGRRTFYSDDVK | GNMIVTFVD
nd | 0 of 6 | GATLKSYGIS | VIYSDGRRTFYGDSVK | GRNAGTFDW
nd | 0 of 6 | GFTLNDYGIS | VIYSDGRRTFYSDSVK | GRAAGKFDS
nd | 0 of 6 | GFDLQEYGIS | VIYADGKRSMYSNDVK | GAVGLGELL
nd | 0 of 6 | GFDINEYGIS | VIYADGLRTAYSQQVK | GQDLGDVVD
nd | 0 of 6 | GFDLMEYGIS | VIYADGVRTAYLDQVK | GEEGGAYYT
nd | 0 of 6 | GFTLNSYGYS | VIYSDGRRTFYGDSFK | GREAGTFDS
nd | 0 of 6 | GFTLNSYGIS | VIYSDGRRTFYGDFVK | GRAAGRFDS
nd | 0 of 12 | GFTLNSYGIS | VIYADGRRTFYGDSVK | GRAAGTFLS
nd | 0 of 6 | GFTLNDYGIS | VIYSDGRRTFYDDSVK | GRAAGTFRS
nd | 0 of 6 | GFQINEYGIS | VIYADGLRTAYSQQVK | GQDLVNFVD
nd | 0 of 6 | GFNLNSYGIS | VIYSDGRRTFMGDSVK | GRAAGTPDS

Again, the first 6 entries without any signal:

CDR-H1 | CDR-H2 | CDR-H3 | Kd | seen in
GFDLGEYGVS | VIYADGKRTHYADHVK | GVNLGFFDT | nd | 0 of 6
GFTLNSFGIS | VIYSDGRRTFYDDSQK | HQLDGTFDS | nd | 0 of 6
GFGIGEYGIS | VIYADGRRTFYSDDVK | GNMIVTFVD | nd | 0 of 6
GATLKSYGIS | VIYSDGRRTFYGDSVK | GRNAGTFDW | nd | 0 of 6
GFTLNDYGIS | VIYSDGRRTFYSDSVK | GRAAGKFDS | nd | 0 of 6
GFDLQEYGIS | VIYADGKRSMYSNDVK | GAVGLGELL | nd | 0 of 6

From the AlphaSeq antibody data of Li et al. 2023 (doi:10.1038/s41467-023-39022-2), copy in the FLAb collection.